Reference: patent publication US10624947B2, “Bactericidal peptides and uses thereof” (INDIANA UNIVERSITY RESEARCH AND TECHNOLOGY CORPORATION, priority 2016, dated 2020)
Values after ≈ are worked out from the molar mass of the structure shown. Where two headings read alike, the source gives them in different places.

System: Escherichia coli

SMILES: CC[C@H](C)[C@H](NC(=O)[C@H](CCCNC(=N)N)NC(=O)[C@H](CS)NC(=O)[C@@H]1CCCN1C(=O)[C@H](Cc1ccc(O)cc1)NC(=O)[C@@H]1CCCN1C(=O)[C@@H](NC(=O)[C@H](CCC(N)=O)NC(=O)CNC(=O)[C@H](Cc1ccc(O)cc1)NC(=O)[C@H](CCC(=O)O)NC(=O)[C@H](CCCNC(=N)N)NC(=O)[C@H](Cc1c[nH]c2ccccc12)NC(=O)[C@H](C)NC(=O)[C@H](CCCCN)NC(=O)[C@H](Cc1c[nH]c2ccccc12)NC(=O)[C@@H](NC(=O)[C@H](CCCCN)NC(=O)[C@H](CCCNC(=N)N)NC(=O)CNC(=O)[C@@H](NC(=O)[C@H](CCCCN)NC(=O)CNC(=O)[C@@H](NC(=O)[C@H](CCCCN)NC(=O)[C@H](CCCNC(=N)N)NC(=O)CNC(=O)[C@H](CC(C)C)NC(=O)[C@H](CCCCN)NC(=O)[C@H](CCC(N)=O)NC(=O)[C@@H](NC(=O)[C@H](CCCNC(=N)N)NC(=O)[C@H](CCCCN)NC(=O)[C@H](CCCNC(=N)N)NC(=O)[C@@H](NC(=O)[C@H](CCCCN)NC(=O)[C@H](CCCNC(=N)N)NC(=O)[C@H](Cc1ccccc1)NC(=O)[C@H](CCCCN)NC(=O)[C@H](CCCCN)NC(=O)[C@H](CCCNC(=N)N)NC(=O)[C@H](CC(C)C)NC(=O)CN)[C@@H](C)O)[C@@H](C)CC)[C@@H](C)CC)[C@@H](C)O)C(C)C)[C@@H](C)CC)C(=O)O [CAP-11, reference compound]
- Minimal inhibitory concentration (E. coli IU0342): 4 µg/mL (≈ 0.757 µM)
- Minimal inhibitory concentration (E. coli MC4100): 4 µg/mL (≈ 0.757 µM)
